Measurements: patent US5030649A, “2-aminoethylamine derivatives, compositions of the same and use of said compounds in medicine” (dated 1991)
pKi: −log10 of the molar value.

Amino acid sequences for entries named in this document (tags omitted). A change or cut given only in a name is not applied to a line headed by its entry. Residues count along the entry.
UniProt P41144: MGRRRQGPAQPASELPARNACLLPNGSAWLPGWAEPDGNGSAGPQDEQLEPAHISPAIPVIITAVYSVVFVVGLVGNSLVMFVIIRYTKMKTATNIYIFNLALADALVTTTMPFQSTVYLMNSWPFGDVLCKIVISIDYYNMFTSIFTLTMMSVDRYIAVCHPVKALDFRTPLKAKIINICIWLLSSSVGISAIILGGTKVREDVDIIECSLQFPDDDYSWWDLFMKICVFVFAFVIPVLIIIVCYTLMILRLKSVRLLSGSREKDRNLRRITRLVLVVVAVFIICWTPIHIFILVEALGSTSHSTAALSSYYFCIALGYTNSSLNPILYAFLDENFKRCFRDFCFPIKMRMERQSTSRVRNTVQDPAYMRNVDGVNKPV
UniProt A0ACM8Q262, 1-400: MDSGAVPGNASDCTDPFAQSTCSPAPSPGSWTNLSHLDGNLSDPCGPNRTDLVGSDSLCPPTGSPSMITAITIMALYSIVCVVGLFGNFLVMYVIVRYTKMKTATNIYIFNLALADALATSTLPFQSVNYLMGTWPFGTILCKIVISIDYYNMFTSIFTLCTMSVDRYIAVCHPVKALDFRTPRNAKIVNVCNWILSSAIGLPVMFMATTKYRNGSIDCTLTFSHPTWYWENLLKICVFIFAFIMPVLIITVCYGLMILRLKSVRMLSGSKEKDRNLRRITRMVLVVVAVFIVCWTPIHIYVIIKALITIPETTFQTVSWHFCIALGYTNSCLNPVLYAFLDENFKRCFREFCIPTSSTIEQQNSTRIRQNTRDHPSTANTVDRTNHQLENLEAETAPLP

Assays:
kappa opioid receptor = kappa opioid receptor (Cavia porcellus, UniProt P41144); assay: Receptor affinity study: binding to K (kappa) sites, tritiated ethylketocyclazocine, brain homogenate; details: read-out: OPIATE RECEPTORS BINDING kappa Ki, guinea pig brain homogenate, 100 nM DADLE and 100 nM DAGO, 25° C., 40 min
μ opioid receptor = μ opioid receptor (Cavia porcellus, UniProt A0ACM8Q262); assay: Receptor affinity study: binding to μ sites, 3H-DAGO, brain homogenate; details: read-out: OPIATE RECEPTORS BINDING mu Ki, guinea pig brain homogenate, 25° C., 40 min
[1] = Mouse tail-flick test (analgesic activity, subcutaneous); details: subcutaneous in isotonic saline, 30 min after dosing, activity = percent of mice doubling initial reaction time

Row | Structure (SMILES) | pKi (kappa opioid receptor) | pKi (μ opioid receptor) | MOUSE TAIL-FLICK ED50 SUBCUTANEOUS [1] [mg/kg]
1 | CN(C)C[C@H](Cc1ccccc1)N(C)C(=O)Cc1ccc(Cl)c(Cl)c1 | < 7.00 | – | –
2 | CCN(C(=O)Cc1ccc(Cl)c(Cl)c1)[C@H](CN(C)C)c1ccccc1 | 8.32 | 6.06 | 0.28
3 | CN(C(=O)Cc1ccc(C(F)(F)F)cc1)[C@H](CN1CCCC1)c1ccccc1 [listing 1 of 2 here] | 8.72 | – | –
4 | CN(C(=O)Cc1ccc([N+](=O)[O-])cc1)[C@H](CN1CCCC1)c1ccccc1 [listing 1 of 2 here] | – | – | 0.036
5 | CN(C)C[C@H](c1ccccc1)N(C)C(=O)Cc1ccc(C(F)(F)F)cc1 | 8.49 | < 6.00 | 0.39
6 | CN(C)C[C@H](c1ccccc1)N(C)C(=O)Cc1ccc([N+](=O)[O-])cc1 | 8.10 | 6.26 | 0.4
7 | CN(C(=O)Cc1ccc(Cl)c(Cl)c1)[C@H](CN1CCCC1)c1ccccc1 | – | 6.91 | 0.022
8 | CN(C(=O)Cc1ccc(C(F)(F)F)cc1)[C@H](CN1CCCC1)c1ccccc1 [listing 2 of 2 here] | – | 6.30 | 0.030
9 | CN(C(=O)Cc1ccc([N+](=O)[O-])cc1)[C@H](CN1CCCC1)c1ccccc1 [listing 2 of 2 here] | 8.89 | 7.00 | –
10 | CN(C(=O)Cc1cccc([N+](=O)[O-])c1)[C@H](CN1CCCC1)c1ccccc1 | 9.31 | 6.71 | 0.036
11 | CN(C(=O)Cc1ccc(Cl)c(Cl)c1)[C@@H](Cc1ccccc1)CN1CCCC1 | < 7.00 | – | –
12 | CN(C)C[C@H](c1ccccc1)N(C)C(=O)Cc1cccc([N+](=O)[O-])c1 | 8.89 | 5.98 | 0.13
13 | CN(C)C[C@H](c1ccccc1)N(C)C(=O)Cc1ccc(Cl)c(Cl)c1 | 8.70 | 6.29 | 0.1
14 | CN(C(=O)Cc1ccccc1[N+](=O)[O-])[C@H](CN1CCCC1)c1ccccc1 | 8.45 | 5.91 | 3.5
15 | CN(C)C[C@H](c1ccccc1)N(C)C(=O)Cc1ccccc1[N+](=O)[O-] | 7.84 | < 6.00 | 5.0
